Experimental data from patent US20210236513A1, “NOVEL USES” (ZARODEX THERAPEUTICS LIMITED, priority 2018, published 2021).

Test system: circulating immunoglobulins (IgG1, IgG2a, IgG2b, IgG3, IgA, IgM, kappa, lambda)
Assay: Wild type mouse study, circulating immunoglobulin profile by ELISA
Conditions: FIG. 24; for Circulating IgA levels compared to control: clozapine 5 and 10 mg/kg, haloperidol 1 mg/kg

CN1CCN(C2=Nc3cc(Cl)ccc3Nc3ccccc32)CC1 [Clozapine, clozapine]
Other circulating immunoglobulin isotype classes: No other isotype classes were affected | Circulating IgA levels compared to control: reduction in circulating IgA levels

O=C(CCCN1CCC(O)(c2ccc(Cl)cc2)CC1)c1ccc(F)cc1 [Haloperidol, haloperidol]
Circulating IgA levels compared to control: not observed
